Laboratory results taken from patent US6649753B2, “Stable salts of S-adenosyl-L-methionine (SAMe) and the process for their preparation” (Orchid Chemicals & Pharmaceuticals Ltd., priority 2001, dated 2003).
Read-outs that look alike come from different tables or passages of the source.

Format: physicochemical
Conditions: for SAMe Residual Ratio: 40-45° C. with 70-75% Relative Humidity
Method: Assessment of stability of the above SAMe salts has been done as per the ICH guidelines at 40-45° C. with 70-75% Relative Humidity and an improved HPLC method has been employed which resolves all the impurities formed on degrading SAMe (Table I). This method of HPLC analysis is the best method known so far to study stability of SAMe and has been validated as per the ICH guidelines. The details of the HPLC method followed and the accelerated stability report are as under:
Column=YMC-ODS-A, 4.6 mm×25 cm, C-18, 5 micron
Buffer=A mixture of 0.02 M citric acid & 0.01 M sodium dihydrogen orthophosphate
Mobile phase=using acetonitrile water with citric acid buffer
Detector=UV at 254 nm wavelength
Flow rate=1.5 ml per min.
Column temperature=25° C.
The percentage of SAMe after storage at the specified temperature was determined using the content of SAMe after storage and the content of SAMe before storage, i.e., initial content of SAMe in the corresponding salt using the following equation: [formula]

[1] = accelerated storage period 30 days
[2] = accelerated storage period 60 days
[3] = accelerated storage period 90 days

Substance	SAMe Residual Ratio [1]	SAMe Residual Ratio [2]	SAMe Residual Ratio [3]	stability at accelerated temperatures
SAMe disulfate resorcinol-4,6-disulfonate or its sodium salt [Salt I]	97.7%	95.5%	95.0%	–
SAMe disulfate phenol-2,4,6-trisulfonate or its sodium salt [Salt III]	98.0%	96.3%	95.8%	–
SAMe disulfate salt with analogous hydroquinone-2,3-disulphonic acid or its sodium salt	–	–	–	poor stability
